Results on seven compounds are retold here after patent publication US20250289807A1, “Inhibitors of ROCK2” (Graviton Bioscience BV, priority 2022, published 2025).

Amino acid sequences for entries named in this document (tags omitted). A change or cut given only in a name is not applied to a line headed by its entry.
UniProt Q13464: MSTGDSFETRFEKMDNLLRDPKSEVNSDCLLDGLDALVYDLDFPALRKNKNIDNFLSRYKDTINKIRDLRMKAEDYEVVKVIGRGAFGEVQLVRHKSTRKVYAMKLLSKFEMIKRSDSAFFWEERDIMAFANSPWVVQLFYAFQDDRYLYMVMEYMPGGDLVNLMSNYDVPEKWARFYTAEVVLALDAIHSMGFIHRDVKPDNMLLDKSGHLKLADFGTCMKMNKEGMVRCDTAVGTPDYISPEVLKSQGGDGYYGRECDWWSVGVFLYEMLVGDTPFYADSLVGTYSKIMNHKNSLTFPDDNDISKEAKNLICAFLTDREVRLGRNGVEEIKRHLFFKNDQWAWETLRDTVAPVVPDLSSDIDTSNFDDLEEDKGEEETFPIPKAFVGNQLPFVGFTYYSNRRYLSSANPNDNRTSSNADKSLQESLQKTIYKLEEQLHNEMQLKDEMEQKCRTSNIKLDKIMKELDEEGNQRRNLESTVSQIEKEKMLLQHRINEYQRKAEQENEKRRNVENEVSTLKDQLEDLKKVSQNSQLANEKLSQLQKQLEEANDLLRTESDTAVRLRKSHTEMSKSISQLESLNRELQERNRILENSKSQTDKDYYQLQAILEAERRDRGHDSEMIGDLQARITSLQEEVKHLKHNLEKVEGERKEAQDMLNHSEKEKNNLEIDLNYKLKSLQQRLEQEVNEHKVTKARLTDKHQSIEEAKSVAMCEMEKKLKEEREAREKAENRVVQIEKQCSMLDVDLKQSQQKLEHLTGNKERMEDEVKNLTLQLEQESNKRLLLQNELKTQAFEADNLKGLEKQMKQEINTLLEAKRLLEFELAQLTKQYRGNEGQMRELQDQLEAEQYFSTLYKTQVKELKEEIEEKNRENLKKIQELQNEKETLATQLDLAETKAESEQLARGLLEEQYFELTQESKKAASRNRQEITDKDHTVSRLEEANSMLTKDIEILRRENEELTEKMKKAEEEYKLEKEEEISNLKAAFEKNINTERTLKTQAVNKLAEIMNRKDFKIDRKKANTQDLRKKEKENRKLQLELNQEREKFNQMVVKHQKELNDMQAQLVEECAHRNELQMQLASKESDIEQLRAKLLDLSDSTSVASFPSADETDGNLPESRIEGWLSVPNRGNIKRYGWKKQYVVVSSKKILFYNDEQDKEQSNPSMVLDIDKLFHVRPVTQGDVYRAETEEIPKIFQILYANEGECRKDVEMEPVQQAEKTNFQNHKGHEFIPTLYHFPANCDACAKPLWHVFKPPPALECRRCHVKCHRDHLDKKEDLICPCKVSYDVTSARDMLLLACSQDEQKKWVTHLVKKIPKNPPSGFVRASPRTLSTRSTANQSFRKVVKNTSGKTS

Some results are limits rather than exact numbers.

The assay has as its target ROCK1 (Homo sapiens (Human), UniProt Q13464). As to the kind of experiment: ADP-Glo kinase assay, ROCK1. The settings on record: 10 μM ATP, 170 μM S6K substrate, 120 min. Type of assay: biochemical. How it is done: ADP-Glo kinase assay (Promega). The ADP-Glo™ Kinase Assay is a luminescent ADP detection assay that allows measurement of kinase activity based on the amount of ADP produced during a kinase reaction. The kinase reaction is performed in the presence of ATP, S6K substrate ([…]) and the ROCK kinase in the appropriate Kinase Reaction Buffer (1×). Upon termination of the reaction, the unconsumed ATP is depleted by addition of ADP-Glo™ Reagent. Next, Kinase Detection Reagent is added to convert ADP to ATP and allow the newly synthesized ATP to be measured using a luciferase/luciferin reaction. The luminescence is proportional to the produced ADP and consequently to the kinase activity. The ADP-Glo™ Kinase Assay was performed in a 384 well plate format as follows.
Kinase Detection Reagent Preparation: The Kinase Detection Buffer was thawed at room temperature (RT). If a precipitate was present, the buffer was incubated at 37° C. with constant swirling for 15 minutes to dissolve the precipitate or the precipitate was removed from the buffer by carefully pipetting the supernatant from the bottle. After equilibrating both the Kinase Detection Buffer and Kinase Detection Substrate to room temperature, the entire volume of Kinase Detection Buffer was transferred into the bottle containing Kinase Detection Substrate to reconstitute the lyophilized substrate, followed by gentile mixing to obtain a homogeneous solution.
Kinase Reaction Buffer Preparation: Kinase reaction buffer was prepared freshly before each experiment.
ADP-Glo Reagents Preparation. Three mixes were prepared on ice before running the assay: • Mix 1—containing ROCK1 or ROCK2 in Kinase Reaction Buffer (1×) • Mix 2—containing S6K peptide in Kinase Reaction Buffer (1×) • Mix 3—containing ATP in Kinase Reaction Buffer (1×)
The ratios of reagent volumes in the assay were 1:1:2 of kinase reaction to ADP-Glo™ Reagent to Kinase Detection Reagent. For 384-well plates, volumes were: 5 μl of kinase reaction, 5 μl of ADP-Glo™ Reagent and 10 μl of Kinase Detection Reagent.
Generating a standard curve for conversion of ATP to ADP. To estimate the amount of ADP produced in the kinase reaction, a standard curve that represents the luminescence corresponding to the conversion of ATP to ADP was prepared based on the ATP concentration used in the kinase reaction. These conversion curves represent the amounts of ATP and ADP available in a reaction at the specified conversion percentage ranging from 100% conversion to 0% conversion. The standard samples used to generate an ATP-to-ADP conversion curve are created by combining the appropriate volumes of ATP and ADP stock solutions.
Each plate contained a positive control (1 μM Comp. A for ROCK2 and 1 μM RKI-1447 for ROCK1); a vehicle control (1% DMSO); a blank control (kinase reaction buffer (1×)); a low control (substrate and ATP, without kinase); and an autophosphorylation control (kinase and ATP, without substrate). Test and reference compounds were diluted in 100% DMSO to obtain 10 mM stock solutions. Each compound was tested in 8-serial dilutions in duplicate. The final concentration of DMSO in the reaction was 1% (up to 50 nL).
5 μl/well Kinase Reaction Buffer (1×) was dispensed to blank control wells. 2 μl/well Kinase Reaction Buffer (1×) was dispensed to control without protein (low control) and without substrate (autophosphorylation) wells. The plate was sealed with adhesive film followed by a short spin (1 min, 1000 rpm).
2 μl/well kinase (2.5×) solution was dispensed into relevant wells of the assay plate. The plate was sealed with adhesive film followed by a short spin (1 min, 1000 rpm).
The plate was sealed with adhesive film followed by a short spin (1 min, 1000 rpm).
1 μl/well ATP (5×) solution was dispensed into relevant wells of the assay plate. The final volume of reaction was […]. The plate was sealed with adhesive film followed by a short spin (1 min, 1000 rpm). […]
Background: ADP-Glo first removes unused ATP, then detects ADP through luciferase.

`CN(C)CCn1c(C(=O)N2CC(F)(F)C2)cc2ccc(-c3nccc(Nc4ccc(-c5ccn[nH]5)cc4)n3)cc21` [Example 5]: the IC50 is more than 50 µM.
Under `O=C(c1cc2ccc(-c3nccc(Nc4ccc(-c5ccn[nH]5)cc4)n3)cc2n1CC1COC1)N1CC(F)(F)C1` [Example 6] stands 1.99 µM.
`O=C(c1cc2ccc(-c3nccc(Nc4ccc(-c5cnc[nH]5)cc4)n3)cc2n1CC1COC1)N1CCC(F)(F)C1` [Example 11]: half-maximal inhibition (IC50) required 3.68 µM.
Under `O=C(c1cc2ccc(-c3nccc(Nc4ccc(-c5ccn[nH]5)cc4)n3)cc2o1)N1CC(F)(F)C1` [Example 14] stands 4.71 µM.
Under `Cn1c(C(=O)N2CCC(F)(F)C2)cc2ccc(-c3nccc(Nc4ccc(-c5cn[nH]n5)cc4)n3)cc21` [Example 17] stands 0.437 µM; under `O=C(c1cc2ccc(-c3nccc(Nc4ccc(-c5ccn[nH]5)cc4)n3)cc2s1)N1CC(F)(F)C1` [Example 20], 23.3 µM.
Under `O=C(c1nc2ccc(-c3nccc(Nc4ccc(-c5ccn[nH]5)cc4)n3)cc2[nH]1)N1CC(F)(F)C1` [Example 21] stands 7.78 µM.

For orientation: IC50 means the midpoint of a concentration-inhibition curve. The low end stands for greater potency in that assay, the high end for weaker potency in that assay.
